Tests used:
[1] = Ratio of half life of compound to verapamil in mouse liver microsomes at 1 uM in presence of NADPH by LC-MS/MS analysis; type: ADME, Microsome
[2] = in vitro; conditions: mouse, liver microsomes

SMILES: CCOc1ccc(CN2CCc3ccccc3C2)cc1CNC(=O)[C@@H](N)Cc1c(C)cc(O)cc1C.O=C(O)C(F)(F)F
- Ratio [1]: 1.8
- half-life at 1 µM [2]: 29.9 to 52.9 min

SMILES: CCOc1ccc(CN2Cc3ccccc3C2)cc1CNC(=O)[C@@H](N)Cc1c(C)cc(O)cc1C.O=C(O)C(F)(F)F
- Ratio [1]: 2.7
- half-life at 1 µM [2]: 25.7 to 70.4 min

SMILES: CCOc1ccc(C(=O)N2Cc3ccccc3C2)cc1CNC(=O)[C@@H](N)Cc1c(C)cc(O)cc1C.O=C(O)C(F)(F)F
- Ratio [1]: 3.3
- half-life at 1 µM [2]: 29.9 to 97 min

SMILES: CCOc1ccc(C(=O)N2CCCC2)cc1CNC(=O)[C@@H](N)Cc1c(C)cc(O)cc1C.O=C(O)C(F)(F)F
- Ratio [1]: 5.3
- half-life at 1 µM [2]: 25.7 to 137 min

SMILES: CCOc1ccc(CN(C)Cc2ccccc2)cc1CNC(=O)[C@@H](N)Cc1c(C)cc(O)cc1C.O=C(O)C(F)(F)F
- Ratio [1]: 1.4
- half-life at 1 µM [2]: 27.6 to 39.2 min

SMILES: CCOc1ccc(CNCc2ccccc2)cc1CNC(=O)[C@@H](N)Cc1c(C)cc(O)cc1C.O=C(O)C(F)(F)F
- Ratio [1]: 1.9
- half-life at 1 µM [2]: 27.6 to 51.5 min

Source: ChEMBL document CHEMBL4376894 (J Med Chem, 2020)
